Reference: ChEMBL document CHEMBL1140736, “High-throughput log P determination by ultraperformance liquid chromatography: a convenient tool for medicinal chemists” (J Med Chem, 2008)

Assay: Partition coefficient, log P of the compound
Type: physicochemical
Settings: octanol/water

## COCCc1ccc(OCC(O)CNC(C)C)cc1 (stereo unspecified) [METOPROLOL]
  logP: 1.95
